The target in this assay is T1, farnesyl-protein transferase (Bos taurus, UniProt P29702+P49355).
T1 construct: partially pure bovine brain farnesyl-protein transferase; from tissue; host or cells: bovine brain (cerebral lobes)
Kind of assay: Inhibition of Ras farnesylation in vitro. Format: biochemical, bovine. The note with it: Ras-CVLS at 3.5 µM, 0.25 µM [³H]FPP, partially purified enzyme; average of 2-5 determinations; read-out: IC₅₀. The protocol: Polyisoprenylation of Ras- [³H]Farnesyl diphosphate (FPP) (20 Ci/mmol) was purchased from New England Nuclear. Farnesyl-protein transferase activity assays were carried out at 30°C unless noted otherwise. A typical reaction contained (in a final volume of 50 µl):[³H]farnesyl diphosphate, Ras protein (3.5µM), 50 mM HEPES, pH 7.5, 5 mM MgCl₂ 5 mM dithiothreitol and farnesyl-protein transferase. After thermally pre-equilibrating the assay mixture in the absence of enzyme, reactions were initiated by the addition of farnesyl-protein transferase and stopped at timed intervals by the addition of 1M HCl in ethanol (1 mL). The quenched reactions were allowed to stand for 15 minutes (to complete the precipitation process). After adding 2 mL of 100% ethanol, the reactions were vacuum-filtered through Whatmann GF/C filters. Filters were washed four time with 2 mL aliquots of 100% ethanol, mixed with scintillation fluid (10 mL) and then counted in a Beckmann LS3801 scintillation couter.
For inhibition studies, assays were run as described above, except putative inhibitors were added at the concentration indicated, IC₅₀ values were determined with both farnesyl-protein transferase substrates at their KM concentrations. The KM for Ras protein substrate having the CAAX sequence, CVLS, is 3.5 µM and the KM for FPP is 0.25µM.
Ras proteins used as substrates were expressed in E. coli and purified. […]

In the case of `CC(C)C[C@H](NC(=O)[C@@H](NC(=O)[C@@H](N)CS)C(C)C)C(=O)N[C@@H](CO)C(=O)O` [CVLS, Cys-Val-Leu-Ser, reference compound], the IC50 is 2000 nM.
